Laboratory results: patent US20230218577A1, “USE OF HEAT SHOCK PROTEIN INHIBITORS FOR THE TREATMENT OF NEURODEVELOPMENTAL DISORDERS” (The Children's Medical Center Corporation, priority 2020, published 2023)
Where two headings read alike, the source gives them in different places. Peptide text beside a SMILES is read from it. * marks the point of attachment. Cbz = O=C(OCc1ccccc1)*

System: mTORC1 activity (pS6) in Tsc2-sh hippocampal neurons
Experiment: mTORC1 high-content screen (mTORC1^HCA) with the Biomol collection library
[1] = Z-score of percent GFP+pS6+ neurons in compound-treated Tsc2-knockdown wells, DIV20, Biomol library screen, replica 1
[2] = Z-score of percent GFP+pS6+ neurons in compound-treated Tsc2-knockdown wells, DIV20, Biomol library screen, replica 2
[3] = Z-score of percent GFP+pS6+ neurons in compound-treated Tsc2-knockdown wells, DIV20, Biomol library, replica 1
[4] = Z-score of percent GFP+pS6+ neurons in compound-treated Tsc2-knockdown wells, DIV20, Biomol library, replica 2

Row | Molecule | T2 Zscore (Replica 1) | T2 Zscore (Replica 2) | further results
1 | O=C(O)CCC/C=C\C[C@H]1C(=O)C[C@@H](O)[C@@H]1/C=C/[C@@H](O)CCc1ccccc1 [17-Phenyl-trinor-prostaglandin E2] | 0.2394 | −0.07446 | 
2 | N#C/C(=C/c1ccc(O)c(O)c1)C(=O)NCc1ccccc1 [AG-490] | 0.3683 | 0.6139 | 
3 | Cl.O=C([O-])c1ccc(-c2c3nc(c(-c4ccc(C(=O)O)cc4)c4nc(c(-c5ccc(C(=O)O)cc5)c5ccc([nH]5)c(-c5ccc(C(=O)[O-])cc5)c5ccc2[n-]5)C=C4)C=C3)cc1.[Mn+3] [MnTBAP chloride] | −0.1478 | −0.3574 | 
4 | COC(=O)c1c(C)[nH]c(C)c1C(=O)c1ccccc1Cc1ccccc1 [FPL-64176] | 0.2513 | −0.7609 | 
5 | O=C(NCc1ccncc1)C12CC3CC(C1)CC(c1ccc(Cl)cc1)(C3)C2 [ABC294640] |  |  | T2 Zscore (Replica 1) [1]: 0.7311; T2 Zscore (Replica 2) [2]: 0.4836
6 | CC(C)=CC[C@@H](O)C1=CC(=O)c2c(O)ccc(O)c2C1=O [Shikonin] | 0.2281 | 1.574 | 
7 | COc1ccc(C(=O)O[C@H]2CC[C@@]3(C)[C@@H]4CC[C@H]5[C@]6(O)C[C@H](O)[C@@]7(O)[C@@H](CN8C[C@@H](C)CC[C@H]8[C@@]7(C)O)[C@]6(O)C[C@@]53O[C@]24O)cc1OC [Veratridine] | 0.7363 | −0.231 | 
8 | Cc1ccc(N(CC2=NCCN2)c2cccc(O)c2)cc1 [Phentolamine] |  |  | T2 Zscore (Replica 1) [1]: 1.591; T2 Zscore (Replica 2) [2]: −0.1789
9 | CCCCC/C=C\C/C=C\C/C=C\C/C=C\CCCC(=O)OC(CO)CO [2-Arachidonoylglycerol] | 1.604 | −0.9465 | 
10 | Cc1cnc(C(=O)NCCc2ccc(S(=O)(=O)NC(=O)NC3CCCCC3)cc2)cn1 [Glipizide] |  |  | T2 Zscore (Replica 1) [1]: 0.3811; T2 Zscore (Replica 2) [2]: 0.6916
11 | COc1cc2ncc(-c3ccccc3)nc2cc1OC [AG-1296] | 0.1248 | 0.3123 | 
12 | O=C1C=CC(=O)c2c(O)cccc21 [Juglone] |  |  | T2 Zscore (Replica 1) [1]: 0.843; T2 Zscore (Replica 2) [2]: 0.3308
13 | CCCCCCCCCC(=O)N[C@H](CN1CCOCC1)[C@H](O)c1ccccc1 (racemic) [DL-PDMP] | −0.7598 | −1.578 | 
14 | C[C@@H](N)[C@H]1CC[C@H](C(=O)Nc2ccncc2)CC1 [Y-27632] |  |  | T2 Zscore (Replica 1) [1]: 0.4321; T2 Zscore (Replica 2) [2]: −0.3925
15 | CCCCC/C=C\C[C@H](O)/C=C/C=C\C/C=C\CCCC(=O)O [12(S)-HETE] | 0.9663 | 1.194 | 
16 | CC(C)(C)n1nc(-c2ccc(Cl)cc2)c2c(N)ncnc21 [PP2] | 0.7427 | 0.2943 | 
17 | CCCCCCCC/C=C\CCCCCCCCOC[C@H](COP(=O)([O-])OCC[N+](C)(C)C)OC(C)=O [PAF C18:1] | 0.3776 | −0.5519 | 
18 | CCCC[C@H]1C(=O)O[C@H](C)[C@H](NC(=O)c2cccc(NC=O)c2OC)C(=O)O[C@@H](C)[C@@H]1OC(=O)CC(C)C [2-methoxyantimycin A3] | 0.3786 | 1.462 | 
19 | CC1(O)CC23CC(O)C4(O)C(CC(O)C4(C)C)C(C)(O)C2CCC1C3O (centres unmarked) [Grayanotoxin III] | 0.9767 | −0.01702 | 
20 | CC[C@@H]1/C=C(\C)C[C@H](C)C[C@H](OC)[C@H]2O[C@@](O)(C(=O)C(=O)N3CCCC[C@H]3C(=O)O[C@H](/C(C)=C/[C@@H]3CC[C@@H](O)[C@H](OC)C3)[C@H](C)[C@@H](O)CC1=O)[C@H](C)C[C@@H]2OC [Ascomycin (FK-520)] | 1.137 | 0.2159 | 
21 | CC(=O)OCOC(c1ccc2ccccc2c1)P(=O)(OCOC(C)=O)OCOC(C)=O (centres unmarked) [HNMPA-(AM)3] | 1.37 | −0.2103 | 
22 | CCCCCCCCCCCC=CCC=CCCCC(=O)O [Eicosa-5,8-dienoic acid (20:2 n-12)] | 0.878 | −0.2302 | 
23 | CC[N+](C)(CC)CCC[n+]1c(-c2ccccc2)c2cc(N)ccc2c2ccc(N)cc21.[I-].[I-] [Propidium iodide] |  |  | T2 Zscore (Replica 1) [1]: −0.1023; T2 Zscore (Replica 2) [2]: 0.1909
24 | O=C(O)CCC/C=C\C[C@@H]1[C@H](CNNC(=O)Nc2ccccc2)[C@H]2CC[C@@H]1O2 [SQ-29548] | 0.3567 | 0.964 | 
25 | COc1ccc(Cl)cc1C(=O)NCCc1ccc(S(=O)(=O)NC(=O)NC2CCCCC2)cc1 [Glyburide] |  |  | T2 Zscore (Replica 1) [1]: −0.002266; T2 Zscore (Replica 2) [2]: 0.6739
26 | CC(C)(c1ccc(OCC2CO2)cc1)c1ccc(OCC2CO2)cc1 (centres unmarked) [BADGE] | 0.7862 | −0.784 | 
27 | CC/C=C\C/C=C\C/C=C\CCCCCCCCCCCC(=O)O [Docosatrienoic acid (22:3 n-3)] | 0.441 | 0.644 | 
28 | Cyclo [Cyclo [Arg-Gly-Asp-D-Phe-Val]] |  |  | T2 Zscore (Replica 1) [3]: 0.6748; T2 Zscore (Replica 2) [4]: 1.273

Row | Molecule | T2 Zscore (Replica 1) | T2 Zscore (Replica 2) | further results
29 | CCCCCCCCCCCCCC(=O)N[C@@H](C)[C@H](O)c1ccccc1 [L-erythro-MAPP] | 0.698 | −0.1457 | 
30 | N#Cc1c(-c2ccccc2)no[n+]1[O-] [Furoxan] |  |  | T2 Zscore (Replica 1) [1]: 0.7022; T2 Zscore (Replica 2) [2]: −0.08245
31 | CCCCC[C@H](O)/C=C/[C@H]1[C@H](O)CC(=O)[C@@H]1CCCCCCC(=O)O [Prostaglandin E1] |  |  | T2 Zscore (Replica 1) [1]: 1.252; T2 Zscore (Replica 2) [2]: −0.5248
32 | N#C/C(=C\c1ccc(O)c(O)c1)C(N)=S [AG213 (Tyrphostin 47)] | 0.5831 | 0.9203 | 
33 | CN1CCN(C2=Nc3cc(Cl)ccc3Nc3ccccc32)CC1 [Clozapine] |  |  | T2 Zscore (Replica 1) [1]: 0.42; T2 Zscore (Replica 2) [2]: −0.102
34 | O=[N+]([O-])c1cccc2c(Br)[nH]nc12 [Bromo-7-nitroindazole] |  |  | T2 Zscore (Replica 1) [1]: 0.5425; T2 Zscore (Replica 2) [2]: 1.132
35 | CCCCC/C=C\C\C=C/C=C/C=C/[C@@H](SCC(NC(C)=O)C(=O)O)[C@@H](O)CCCC(=O)O (some centres unmarked) [N-Acetyl-leukotriene E4] | −2.975 | 1.161 | 
36 | CCCCCC(O)CCCC(=O)O (centres unmarked) [5-Hydroxydecanoate] |  |  | T2 Zscore (Replica 1) [1]: 0.2181; T2 Zscore (Replica 2) [2]: 0.2414
37 | C=C1/C(=C\C=C2/CCC[C@]3(C)[C@@H]([C@H](C)CCCC(C)(C)O)CC[C@@H]23)C[C@@H](O)C[C@@H]1O [25-Dihydroxyvitamin D3] | 0.7998 | 2.01 | 
38 | CCCCCCCCCCCCCCCCOCC(COP(=O)([O-])OCC[N+](C)(C)C)OC (centres unmarked) [1-Hexadecyl-2-methylglycero-3 PC] | 0.6829 | 0.001075 | 
39 | CC(C)C[C@@H](C=O)NC(=O)[C@H](CC(C)C)NC(=O)[C@H](CC(C)C)NC(=O)OCc1ccccc1 [MG-132] (Cbz-Leu-Leu-Leu-aldehyde) | −1.117 | −2.179 | 
40 | CCCCCCCC/C=C\C/C=C\C/C=C\CCCC(=O)O [Mead acid (20:3 n-9)] | 1.221 | −0.08644 | 
41 | N#C/C(=C\c1cc(Cl)cc(Cl)c1)c1cccnc1 [RG-14620] | −0.9463 | 0.845 | 
42 | CCCCC/C=C\C/C=C\C/C=C\C=C\[C@H](CCCC(=O)O)OO [5(S)-HPETE] | 1.034 | 1.732 | 
43 | C/C(=C\c1ccc(C(=O)O)cc1)c1ccc2c(c1)C(C)(C)CCC2(C)C [TTNPB] | 0.4788 | −0.0476 | 
44 | OCCN(CCO)c1nc(N2CCCCC2)c2nc(N(CCO)CCO)nc(N3CCCCC3)c2n1 [Dipyridamole] |  |  | T2 Zscore (Replica 1) [1]: 0.4593; T2 Zscore (Replica 2) [2]: −0.1679
45 | CC[C@]1(O)C[C@@H]2CN(CCc3c([nH]c4ccccc34)[C@@](C(=O)OC)(c3cc4c(cc3OC)N(C)[C@H]3[C@@](O)(C(=O)OC)[C@H](OC(C)=O)[C@]5(CC)C=CCN6CC[C@]43[C@@H]65)C2)C1 [Vinblastine] |  |  | T2 Zscore (Replica 1) [3]: 1.076; T2 Zscore (Replica 2) [4]: 1.713
46 | COC1=CC(=O)O[C@@H](/C=C/c2ccccc2)C1 (racemic) [Kavain (+/−)] | −0.009244 | 0.1749 | 
47 | CCCCCCCCC#CCC#CCC#CCCCC(=O)O [5,8,11-Eicosatriynoic acid] |  |  | T2 Zscore (Replica 1) [3]: 1.075; T2 Zscore (Replica 2) [4]: 0.7076
48 | CCCCC[C@@H](/C=C/C=C\CCCCCCCC(=O)O)OO [13(S)-HPODE] | 0.2882 | −1.527 | 
49 | O=C[C@@H]1CCCN1C(=O)[C@@H]1CCCN1C(=O)OCc1ccccc1 [Z-prolyl-prolinal] (Cbz-Pro-Pro-aldehyde) | 0.243 | −0.1015 | 
50 | CC(C)Cn1c(=O)n(C)c(=O)c2[nH]cnc21 [IBMX] | −0.6764 | −0.5116 | 
51 | CCCCC/C=C\C/C=C\C/C=C\C/C=C\CCCC(=O)NCc1ccc(O)c(OC)c1 [Arvanil] | 0.6877 | −0.1154 | 
52 | Monensin sodium | 0.557 | 0.8335 | 
53 | CCCCCCCCCCCCCCCCOCC(COP(=O)([O-])OCC[N+](C)(C)C)OC(C)=O (stereo not drawn) [Enantio-PAF C16] | −1.476 | 0.3258 | 
54 | CCCCCCCCCCCCCCCCOC[C@@H](O)COP(=O)([O-])OCC[N+](C)(C)C [Lyso-PAF C16] | −0.3675 | −0.0761 | 
55 | OC[C@H]1O[C@@H](n2cnc3cc(Cl)c(Cl)cc32)[C@H](O)[C@@H]1O [DRB (Benzimidazole)] |  |  | T2 Zscore (Replica 1) [1]: −0.1154; T2 Zscore (Replica 2) [2]: 0.1122
